The record followed here is PubChem BioAssay.

Protein sequences, listed by entry. Tags and fused reporters are not part of them. Lines headed by an entry give the natural chain unless they say otherwise; changes in a name come on top.
UniProt P09471, whole entry, looked up: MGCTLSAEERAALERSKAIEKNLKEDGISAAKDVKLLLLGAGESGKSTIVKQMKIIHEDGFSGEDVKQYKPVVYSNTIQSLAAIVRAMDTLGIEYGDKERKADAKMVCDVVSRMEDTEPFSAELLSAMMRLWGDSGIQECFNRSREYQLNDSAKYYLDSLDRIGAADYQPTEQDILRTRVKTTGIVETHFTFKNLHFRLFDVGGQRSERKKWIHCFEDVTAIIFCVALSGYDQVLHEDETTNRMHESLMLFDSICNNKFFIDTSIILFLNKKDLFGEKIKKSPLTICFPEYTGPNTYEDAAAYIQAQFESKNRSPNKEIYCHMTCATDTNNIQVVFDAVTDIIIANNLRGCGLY
UniProt O15492: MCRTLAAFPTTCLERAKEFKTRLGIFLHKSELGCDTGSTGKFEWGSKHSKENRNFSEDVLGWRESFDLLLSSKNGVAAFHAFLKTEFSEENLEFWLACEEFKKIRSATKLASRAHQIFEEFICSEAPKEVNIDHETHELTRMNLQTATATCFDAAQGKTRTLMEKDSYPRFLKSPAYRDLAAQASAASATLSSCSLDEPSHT
UniProt P49795: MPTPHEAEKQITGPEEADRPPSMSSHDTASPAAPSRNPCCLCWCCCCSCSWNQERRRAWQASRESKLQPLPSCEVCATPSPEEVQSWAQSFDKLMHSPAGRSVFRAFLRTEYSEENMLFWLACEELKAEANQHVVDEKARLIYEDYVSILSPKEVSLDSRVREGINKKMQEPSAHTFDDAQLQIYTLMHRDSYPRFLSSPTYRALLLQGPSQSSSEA
UniProt P13612, whole entry, looked up: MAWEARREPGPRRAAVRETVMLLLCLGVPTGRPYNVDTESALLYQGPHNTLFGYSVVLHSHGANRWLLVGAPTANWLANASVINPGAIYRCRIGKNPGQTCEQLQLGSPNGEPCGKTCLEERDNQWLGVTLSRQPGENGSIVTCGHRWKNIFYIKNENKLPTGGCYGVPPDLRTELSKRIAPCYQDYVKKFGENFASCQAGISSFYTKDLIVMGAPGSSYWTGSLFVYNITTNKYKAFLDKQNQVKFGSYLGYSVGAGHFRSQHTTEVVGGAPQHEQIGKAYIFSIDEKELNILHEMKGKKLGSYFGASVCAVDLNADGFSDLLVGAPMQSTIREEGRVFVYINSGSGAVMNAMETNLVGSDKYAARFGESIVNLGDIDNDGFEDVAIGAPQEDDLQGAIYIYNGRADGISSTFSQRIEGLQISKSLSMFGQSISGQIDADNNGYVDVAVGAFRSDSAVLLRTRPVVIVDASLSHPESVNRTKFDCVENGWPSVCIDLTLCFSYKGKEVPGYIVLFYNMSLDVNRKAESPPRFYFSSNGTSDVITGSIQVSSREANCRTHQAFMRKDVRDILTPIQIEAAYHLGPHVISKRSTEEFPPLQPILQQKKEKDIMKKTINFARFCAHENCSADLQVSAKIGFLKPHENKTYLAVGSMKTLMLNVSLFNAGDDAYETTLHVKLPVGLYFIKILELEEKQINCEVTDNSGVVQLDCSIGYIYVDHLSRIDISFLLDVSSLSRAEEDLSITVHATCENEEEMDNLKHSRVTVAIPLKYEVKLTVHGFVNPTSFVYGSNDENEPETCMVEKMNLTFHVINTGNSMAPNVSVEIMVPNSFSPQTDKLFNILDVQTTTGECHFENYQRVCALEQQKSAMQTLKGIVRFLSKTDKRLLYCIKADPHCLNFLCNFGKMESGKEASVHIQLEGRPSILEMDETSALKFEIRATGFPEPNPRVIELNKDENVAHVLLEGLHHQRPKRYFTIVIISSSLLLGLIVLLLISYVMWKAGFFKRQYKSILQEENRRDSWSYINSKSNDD
UniProt P05556, whole entry, looked up: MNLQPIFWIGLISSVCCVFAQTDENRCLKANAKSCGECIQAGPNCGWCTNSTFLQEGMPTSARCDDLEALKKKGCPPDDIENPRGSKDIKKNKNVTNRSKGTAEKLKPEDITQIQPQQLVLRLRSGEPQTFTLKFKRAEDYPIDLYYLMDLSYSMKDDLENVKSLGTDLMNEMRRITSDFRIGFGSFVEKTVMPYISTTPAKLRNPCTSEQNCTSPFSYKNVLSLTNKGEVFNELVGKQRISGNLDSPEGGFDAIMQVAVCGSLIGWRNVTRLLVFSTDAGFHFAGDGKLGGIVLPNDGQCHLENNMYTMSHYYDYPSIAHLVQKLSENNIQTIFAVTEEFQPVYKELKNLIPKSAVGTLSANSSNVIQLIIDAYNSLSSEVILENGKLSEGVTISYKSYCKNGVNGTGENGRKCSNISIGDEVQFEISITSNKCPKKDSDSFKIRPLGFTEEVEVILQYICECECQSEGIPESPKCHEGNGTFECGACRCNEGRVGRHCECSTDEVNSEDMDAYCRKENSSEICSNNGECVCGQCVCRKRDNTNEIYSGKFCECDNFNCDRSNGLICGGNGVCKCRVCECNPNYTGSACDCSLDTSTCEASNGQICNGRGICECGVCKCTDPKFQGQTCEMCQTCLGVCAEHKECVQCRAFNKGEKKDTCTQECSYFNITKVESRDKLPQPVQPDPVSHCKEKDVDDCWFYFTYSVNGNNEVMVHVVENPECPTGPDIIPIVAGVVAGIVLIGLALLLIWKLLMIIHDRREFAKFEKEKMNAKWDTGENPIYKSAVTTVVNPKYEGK
UniProt P25098: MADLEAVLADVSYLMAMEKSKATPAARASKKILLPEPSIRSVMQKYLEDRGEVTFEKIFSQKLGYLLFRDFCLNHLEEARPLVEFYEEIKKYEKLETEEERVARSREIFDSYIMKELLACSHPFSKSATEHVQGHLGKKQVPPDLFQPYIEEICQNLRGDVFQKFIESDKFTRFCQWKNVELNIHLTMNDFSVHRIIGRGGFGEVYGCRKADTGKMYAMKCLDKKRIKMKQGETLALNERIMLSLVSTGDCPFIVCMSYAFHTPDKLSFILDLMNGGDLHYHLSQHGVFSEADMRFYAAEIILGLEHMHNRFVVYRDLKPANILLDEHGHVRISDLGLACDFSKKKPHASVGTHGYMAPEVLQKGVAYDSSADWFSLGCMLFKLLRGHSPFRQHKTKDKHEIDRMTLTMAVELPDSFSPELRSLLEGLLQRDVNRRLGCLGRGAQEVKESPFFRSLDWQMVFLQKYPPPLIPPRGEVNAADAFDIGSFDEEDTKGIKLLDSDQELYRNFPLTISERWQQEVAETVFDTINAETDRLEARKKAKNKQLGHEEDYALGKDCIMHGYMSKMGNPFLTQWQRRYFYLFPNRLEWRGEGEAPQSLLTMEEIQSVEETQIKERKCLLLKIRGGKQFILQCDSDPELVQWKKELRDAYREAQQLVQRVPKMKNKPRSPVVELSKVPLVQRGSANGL
UniProt P63010: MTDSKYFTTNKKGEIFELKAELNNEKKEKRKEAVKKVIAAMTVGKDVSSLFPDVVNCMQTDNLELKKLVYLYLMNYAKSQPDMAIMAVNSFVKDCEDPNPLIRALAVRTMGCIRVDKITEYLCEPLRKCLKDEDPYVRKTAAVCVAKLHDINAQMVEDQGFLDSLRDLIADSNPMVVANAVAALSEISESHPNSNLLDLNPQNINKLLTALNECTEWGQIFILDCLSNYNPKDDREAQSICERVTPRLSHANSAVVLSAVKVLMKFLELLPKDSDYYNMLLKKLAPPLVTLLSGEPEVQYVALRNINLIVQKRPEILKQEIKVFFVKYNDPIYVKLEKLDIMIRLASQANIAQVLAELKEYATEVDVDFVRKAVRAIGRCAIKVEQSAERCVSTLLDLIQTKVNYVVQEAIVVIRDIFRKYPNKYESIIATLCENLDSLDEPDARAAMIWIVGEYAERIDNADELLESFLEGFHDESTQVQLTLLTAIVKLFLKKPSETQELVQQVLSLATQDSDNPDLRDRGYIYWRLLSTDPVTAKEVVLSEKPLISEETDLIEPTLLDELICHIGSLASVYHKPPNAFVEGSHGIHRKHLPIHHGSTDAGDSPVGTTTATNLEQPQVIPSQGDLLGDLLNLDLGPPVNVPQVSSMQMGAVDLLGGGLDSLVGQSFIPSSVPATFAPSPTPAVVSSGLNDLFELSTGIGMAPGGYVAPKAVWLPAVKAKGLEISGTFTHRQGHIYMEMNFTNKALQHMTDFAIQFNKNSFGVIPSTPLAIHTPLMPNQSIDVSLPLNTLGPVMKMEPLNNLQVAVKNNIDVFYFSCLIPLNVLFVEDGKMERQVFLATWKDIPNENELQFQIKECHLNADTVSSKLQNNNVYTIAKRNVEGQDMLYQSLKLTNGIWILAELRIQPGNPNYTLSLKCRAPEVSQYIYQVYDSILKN
UniProt Q9NP58: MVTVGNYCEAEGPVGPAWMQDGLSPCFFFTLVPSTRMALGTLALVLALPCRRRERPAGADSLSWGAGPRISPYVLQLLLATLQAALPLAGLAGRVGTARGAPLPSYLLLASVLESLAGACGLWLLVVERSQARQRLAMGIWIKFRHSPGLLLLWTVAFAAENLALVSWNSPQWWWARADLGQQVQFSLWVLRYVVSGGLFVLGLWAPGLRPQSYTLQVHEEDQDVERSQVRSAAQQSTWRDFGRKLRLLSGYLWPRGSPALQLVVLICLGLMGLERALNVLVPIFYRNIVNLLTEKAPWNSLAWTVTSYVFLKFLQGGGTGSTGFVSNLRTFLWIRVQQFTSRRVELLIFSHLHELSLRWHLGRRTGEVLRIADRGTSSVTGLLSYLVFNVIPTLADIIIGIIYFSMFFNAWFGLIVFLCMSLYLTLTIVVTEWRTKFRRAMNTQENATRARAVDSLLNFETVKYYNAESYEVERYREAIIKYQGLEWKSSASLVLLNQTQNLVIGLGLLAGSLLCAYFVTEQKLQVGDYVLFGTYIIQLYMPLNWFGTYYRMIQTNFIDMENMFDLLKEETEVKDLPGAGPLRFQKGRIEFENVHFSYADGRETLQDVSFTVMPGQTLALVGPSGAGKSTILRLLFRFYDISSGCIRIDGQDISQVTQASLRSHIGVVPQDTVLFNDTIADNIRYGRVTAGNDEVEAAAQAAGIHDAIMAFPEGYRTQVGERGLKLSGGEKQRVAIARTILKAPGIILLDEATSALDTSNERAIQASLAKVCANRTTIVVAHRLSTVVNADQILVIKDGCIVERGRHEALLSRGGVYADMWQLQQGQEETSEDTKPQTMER

The structures appear in SMILES notation. The list shows a part of the results, in another mix than the full data. Records with an inconclusive call do not appear. The source made the active and inactive calls.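 Rule for the calls, unless noted: active = GFP response above 150% of the DMSO level; inconclusive = fewer than 70 events counted for a yeast strain; inactive = the rest.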

Test [1] can be described thus: interference with biotin-avidin bead interaction – biochemical, flow cytometry, bead-based, counter-screen for RGS protein interaction modulators (AID 1783;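 active = inhibition above 50%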;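 note: median green fluorescence of gated singlet beads compared with DMSO control wells; 0% = DMSO wells and 100% = complete loss of bead fluorescence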). The settings on record: streptavidin beads, fluorescein-biotin binding, at 10 µM, active compounds read high. On the technique in general: In flow cytometry, cells or beads pass a laser one at a time.
In test [2] the target is Guanine nucleotide-binding protein G(o) subunit alpha (Homo sapiens) (UniProt P09471). As to the kind of experiment: retest of RGS8-Galphao interaction hits – biochemical, multiplexed bead flow cytometry, single concentration, confirmation (AID 1836; in the data active = binding response below about 72% or above about 130%; inactive = in between;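 note: Galphao activated as GDP AlF4 complex before binding bead RGS8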). The settings on record: bead-based flow cytometry RGS8-Galphao binding, fluorescence; at 10 µM; actives lie on both sides.
For test [3] the target is unchanged. As to the kind of experiment: retest of RGS7-Galphao interaction hits – biochemical, multiplexed bead flow cytometry, single concentration, confirmation (AID 1837; in the data active = response below about 75% or above about 130%; inactive = in between;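 note: fluorescent Galphao activated with GDP and aluminum fluoride binding bead-coupled RGS7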). The settings on record: bead-based flow cytometry RGS7-Galphao binding; at 10 µM; actives lie on both sides.
In test [4] the target is Regulator of G-protein signaling 16 (Homo sapiens) + Guanine nucleotide-binding protein G(o) subunit alpha (Homo sapiens) (UniProt O15492+P09471). As to the kind of experiment: RGS16 and Galphao interaction regulators – biochemical, single concentration, multiplexed bead flow cytometry, confirmation (AID 1838; in the data active = response below about 74% or above about 130%; inactive = in between;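 note: Galphao activated as the GDP aluminium fluoride complex binding bead-coupled RGS16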). Conditions: bead-based flow cytometry, at 10 µM, actives lie on both sides.

Test [5] deals with Guanine nucleotide-binding protein G(o) subunit alpha (Homo sapiens) (UniProt P09471). As to the kind of experiment: RGS4 and Galphao interaction regulators – biochemical, single concentration, multiplexed bead flow cytometry, confirmation (AID 1840; in the data active = binding response below about 74% or above about 130%; inactive = in between). The settings on record: at 10 µM, actives lie on both sides.
Test [6] deals with Guanine nucleotide-binding protein G(o) subunit alpha (Homo sapiens) + Regulator of G-protein signaling 19 (Homo sapiens) (UniProt P09471+P49795). The test can be described thus: RGS19 interaction with Gαo, hit retest – biochemical, single point, multiplexed bead flow cytometry, confirmation (AID 1841; in the data active = response below about 50% or above about 160%; inactive = in between;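 note: 100% = no compound control and 0% = blank background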). The settings on record: bead-based flow cytometry RGS19-Galphao binding; at 10 µM; actives lie on both sides.

Test [7] in a line: hit retest on RPL19A-GFP reporter strain – cell-based, S. cerevisiae, flow cytometry, cherry picks, mother/daughter gates, confirmation (AID 2270;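 active = GFP response below 50% of the DMSO control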). The settings on record: 3 h, at 10 µM, active compounds read low, 100 = same GFP as DMSO wells.
The nature of test [8]: yeast TOR pathway reporter LAP4-GFP change – cell-based, cherry picks, flow cytometry, mother/daughter gates, confirmation (AID 2271;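 active = GFP response above 150% of the DMSO control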;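 note: ratio of sample to DMSO plate mean so 100% equals DMSO level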). Conditions: S. cerevisiae LAP4-GFP strain, 3 h, at 10 µM, active compounds read high, 100 means same as DMSO control.
Test [9] in a line: TOR pathway reporter MEP2-GFP, retest of hits – S. cerevisiae, flow cytometry GFP, cherry picks, confirmation (AID 2272;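 active = GFP response above 150% of the DMSO control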;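 note: ratio of well signal to plate DMSO mean so 100% equals DMSO level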). The settings on record: S. cerevisiae MEP2-GFP strain, 3 h, at 10 µM, active compounds read high.
Test [10] in a line: yeast AGP1-GFP fluorescence change, single-dose – cell-based, flow cytometry, S. cerevisiae, cherry picks, confirmation (AID 2273).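 Note: median GFP channel fluorescence over the whole cell population gate.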 Conditions: S. cerevisiae AGP1-GFP strain, 3 h, at 10 µM.
Test [11] is described as follows: TOR pathway CIT2 reporter hit retest – S. cerevisiae, GFP fusion, cherry picks, mother/daughter gates, confirmation (AID 2274). The settings on record: S. cerevisiae CIT2-GFP strain, flow cytometry, 3 h; at 10 µM; active compounds read high.
The nature of test [12]: rapamycin-like changes in RPL19A-GFP expression – cell-based, S. cerevisiae, multiplex flow cytometry, primary screen (AID 1862; in the data active = percent of DMSO control GFP below about 86%;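 note: lower values mimic rapamycin by blocking the RPL19A rise seen in DMSO cells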). Conditions: S. cerevisiae RPL19A-GFP strain, flow cytometry fluorescence, 3 h; at 10 µM; active compounds read low.
Test [13] can be described thus: TOR pathway GLN3 branch reporter MEP2-GFP changes – S. cerevisiae, multiplex flow cytometry, primary screen (AID 1867;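 active = GFP response, as percent of the DMSO control, above the screen-wide mean plus 3 SD, about 139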;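 note: median GFP channel fluorescence of barcode-gated MEP2-GFP cells measured by flow cytometry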). The settings on record: S. cerevisiae MEP2-GFP strain, 3 h, at 10 µM, active compounds read high, 100% means same as DMSO wells.
The nature of test [14]: TOR pathway RTG branch CIT2 reporter changes – S. cerevisiae, GFP fusion, multiplex flow cytometry, primary screen (AID 1870;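 active = percent response above a set limit, the screen-wide mean plus 3 SD, cut at about 130% in these data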;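 note: barcoded CIT2-GFP strain pooled with four other GFP strains with rapamycin as positive control; median GFP fluorescence per well over plate mean of DMSO wells so 100% = DMSO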). The settings on record: S. cerevisiae CIT2-GFP expression, 3 h, at 10 µM, active compounds read high.
Test [15] can be described thus: TOR pathway LAP4-GFP level changes – S. cerevisiae, multiplex flow cytometry, primary screen (AID 1873;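 active = GFP signal, as percent of the solvent control, above the screen mean plus 3 SD, about 149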). Conditions: S. cerevisiae LAP4-GFP expression, 3 h, at 10 µM, active compounds read high.
Test [16] is described as follows: yeast AGP1-GFP level changes, GLN3 branch – cell-based, multiplex flow cytometry, S. cerevisiae, primary screen (AID 1887;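 active = GFP signal above the screen-wide mean plus 3 SD, that is over about 124.5% of the solvent control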;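 note: AGP1-GFP fusion strain of S. cerevisiae within a five-strain barcoded multiplex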). Conditions: 3 h, at 10 µM, active compounds read high.
The nature of test [17]: reduced mouse 2C T cell binding to pMHC/ICAM-1 vesicles – MLPCN validation set, flow cytometry, LFA-1/ICAM-1 modulator project, pilot screen (AID 2523;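 active = response below a set limit, under 55% cells CD8-positive and vesicle-bound, and CD8 cells' 90th-percentile brightness under 279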;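 note: mean PE anti-B7-1 fluorescence of CD8+ cells relative to row control; 100% = QL9-loaded vesicles with DMSO vehicle in the same plate row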). The settings on record: 2C mouse CD8+ T cells, at 7 µM, active compounds read low.
Test [18] concerns the target Integrin beta-1 (Homo sapiens) + Integrin alpha-4 (Homo sapiens) (UniProt P13612+P05556). As to the kind of experiment: alpha4beta1 integrin LIBS antibody binding reduction – U937 cells, HUTS-21 mAb, flow cytometry, validation set, VLA-4 allosteric modulator project, pilot screen (AID 2674;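 active = inhibition above 50%, about 3 SD of the validation set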;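 note: antibody binding induced by the VLA-4 ligand LDV present at three times its Kd; 0% = LDV ligand with antibody and no compound and 100% = antibody without LDV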). Conditions: HUTS-21 LIBS mAb binding, at 6.7 µM, active compounds read high, binding induced by LDV ligand.

Test [19] is described as follows: calorie-restriction mimetic ROS inhibitors, yeast – validation compound set, pilot screen (AID 2706;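 active = superoxide response below 65% of plate, a cut near 3 SD across the whole screen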;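 note: yeast exposed to compound for one week at 30 degrees C before staining; 100% = mean of all compound wells on the same plate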). Conditions: S. cerevisiae aging, superoxide DHE fluorescence; at 10 µM; active compounds read low.
Test [20] has as its target Beta-adrenergic receptor kinase 1 (Homo sapiens) (UniProt P25098). The test can be described thus: GRK2 binders displacing RNA aptamer, biochemical, validation, human GRK2, bead flow cytometry (AID 488806;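 active = aptamer binding inhibition above 30%, about 3 SD of noise from non-fluorescent compounds; inactive = inhibition at or below 30%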). The settings on record: bead-bound GRK2, FAM-aptamer displacement, at 10 µM, active compounds read high.
Test [21] deals with Beta-2 adrenergic receptor (Homo sapiens) (UniProt P07550). The test can be described thus: agonist-induced loss of surface beta2AR – cell-based, FAP fluorogen, flow cytometry, validation set, pilot screen (AID 504459;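 active = percent response above 42, roughly 3 SD of non-fluorescent test compounds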;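 note: agonist-driven loss of surface beta2AR via internalization measured by FAP dye flow cytometry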). Conditions: Am2.2-beta2AR cells, at 10 µM, active compounds read high.
For test [22], the target named is AP-2 complex subunit beta (Homo sapiens) (UniProt P63010). As to the kind of experiment: beta-arrestin/AP2 interaction blockers – biochemical, validation set, GST-AP2 beads, flow cytometry, pilot screen (AID 504541;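 active = inhibition above 54%, about 3 SD of non-fluorescent compounds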;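 note: AP2 carries R879A mutation and is captured from E. coli lysate; bead-bound FITC arrestin peptide fluorescence measuring arrestin peptide binding to AP2; 0% = DMSO wells and 100% = excess unlabeled arrestin peptide control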). The settings on record: FITC arrestin peptide, at 10 µM, active compounds read high, AP2 beta2 appendage fragment, R879A mutant.
Test [23] is described as follows: cytosolic pH regulators acting via V-ATPase – S. cerevisiae, pHLuorin, HTS validation (AID 504600; in the data active = response above about 15%;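 note: plate controls were DMSO for no effect and reference compound for full effect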). The settings on record: V-ATPase proton transport, at 10 µM, active compounds read high.
For test [24], the system named is anti-desmoglein-3 scFv antibody binding to human DSG3. As to the kind of experiment: blockers of pathogenic pemphigus antibody–desmoglein-3 binding – biochemical, validation compound set, bead-based, flow cytometry, pilot screen (AID 588368;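 active = binding below the plate cutoff, the plate median minus 3 SD, with a reading above zero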;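 note: signal is the median channel fluorescence of bead-bound GFP antibody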). The settings on record: Protein G beads, DSG3-Fc, scFv-GFP binding, at 10 µM, active compounds read low.
Test [25] deals with ATP-binding cassette sub-family B member 6 (Homo sapiens) (UniProt Q9NP58). The test can be described thus: blockers of ABCB6-driven porphyrin uptake – K562-ABCB6 cells, flow cytometry, validation set, pilot screen (AID 588550;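 active = inhibition above the screen-wide mean plus 3 SD, about 51%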;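 note: 0% = DMSO wells and 100% = benzethonium chloride 70 µM positive control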). Conditions: K562-ABCB6 porphyrin accumulation, 1 h, at 10 µM, active compounds read high.
The nature of test [26]: AML differentiation inducers, ER-HoxA9 marrow cells – cell-based, GFP/MAC1 double positive, flow cytometry, validation set, primary screen (AID 588685;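 active = differentiation response of at least 50%, scaled between solvent and reference control, from cells with both markers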;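 note: compound exposure lasts four days before antibody staining and flow analysis; 0% = DMSO wells and 100% = 5 µM fulvestrant positive control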). Conditions: active compounds read high, normalized: vehicle 0, fulvestrant 100.
Test [27] is described as follows: green-channel fluorescence artefact in S. cerevisiae – s288c strain, artefact control for yeast TOR pathway GFP screen, dose response (AID 2757;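 active = fluorescence span over the dose series, or activity score, above about 33, limit read from the data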;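 note: thousands of bead-calibrated equivalent soluble fluorophore molecules from median cell fluorescence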). The settings on record: 520 nm autofluorescence, flow cytometry, 3 h, at 33 µM, active compounds read high, zero means same as solvent-only cells.

On to `Nc1cccc2c([As](=O)(O)O)cccc12`, for which the inhibition (as a rule, the relative decrease from the control value, in per cent) in test [1] is inactive: 0.2%. In addition, the binding response (% of control) was inactive: 102% in test [2] and inactive: 104% in [5]. The response (percent of control binding) in test [3] is inactive: 101%; in [6], inactive: 99.4%. Moreover, the response (% of control binding) in test [4] was inactive: 102%.
As for `c1ccc(-c2nn[nH]n2)c(-c2nn[nH]n2)c1`, in test [1], the inhibition is inactive: 1.6%. Besides, the values for the binding response (% of control) in [2] and in test [5] were inactive: 98.6% and inactive: 94.2%, respectively. The response (percent of control binding) in [3] is inactive: 91.6%; in [6] it was inactive: 98.2%. For the same compound, the response (% of control binding) in test [4] is inactive: 94.1%.
As to `CCOP(=O)(Nc1cccc2ccccc12)OCC`, the GFP response vs DMSO in test [7] was inactive: 98.6%; in [9], inactive: 101%. Further, the GFP response relative to DMSO in test [8] was inactive: 98.2%. The GFP response, % of DMSO in [10] is inactive: 102%; in [11] it was inactive: 103%.
Turning to `CN(C(=O)Cc1ccc(Cl)c(Cl)c1)[C@@H]1CCCC[C@H]1N1CCCC1`, the percent of DMSO control GFP in [12] is inactive: 98.8%. Also, the GFP response vs DMSO is inactive: 104% in test [13] and inactive: 108% in test [15]. In addition, the percent response of DMSO control in test [14] is inactive: 101%. The GFP response, % of DMSO in [16] is inactive: 104%. For the same compound, the vesicle binding response in [17] was inactive: 122%. The inhibition in [18] was inactive: 5.61%; in test [22] it was inactive: -9.18%; in test [25] it was inactive: 1%. Besides, in test [19], the superoxide response (% of plate) was inactive: 93.4%. For the same compound, the aptamer binding inhibition in test [20] is inactive: -1%. For the same compound, the response is inactive: 8.89% in test [21] and inactive: 0.59% in [23]. In addition, the binding (% of control) in test [24] is inactive: 103%. For the same compound, the differentiation response in [26] was inactive: -0.18%.
`O=P(Nc1nccs1)(c1ccccc1)c1nc2ccccc2s1` (stereo not drawn): the GFP response vs DMSO is inactive: 97.6% in [7] and inactive: 104% in [9]. Moreover, the GFP response relative to DMSO in test [8] was inactive: 128%. Further, the GFP response, % of DMSO in [10] was inactive: 99.7%; in test [11], inactive: 97.8%.
For the compound `C[N+]1=C2C=CC=CC=C2SC12C([N+](=O)[O-])=CC([N+](=O)[O-])=C[C-]2[N+](=O)[O-]` (stereo not drawn), the GFP response vs DMSO in test [7] is inactive: 98%; in test [9] it was inactive: 101%. In test [8], the GFP response relative to DMSO was active: 167%. The GFP response, % of DMSO in test [10] was inactive: 104%; in test [11] it was inactive: 100%. The fluorescence change (kMESF span) in [27] was inactive: -0.2.
